Assay results published in patent US8022225B2, “Triazole derivative” (Taisho Pharmaceutical Co., Ltd, priority 2004, dated 2011).

The chains behind the UniProt entries cited, without tags or fusion partners.
UniProt P21453, whole entry: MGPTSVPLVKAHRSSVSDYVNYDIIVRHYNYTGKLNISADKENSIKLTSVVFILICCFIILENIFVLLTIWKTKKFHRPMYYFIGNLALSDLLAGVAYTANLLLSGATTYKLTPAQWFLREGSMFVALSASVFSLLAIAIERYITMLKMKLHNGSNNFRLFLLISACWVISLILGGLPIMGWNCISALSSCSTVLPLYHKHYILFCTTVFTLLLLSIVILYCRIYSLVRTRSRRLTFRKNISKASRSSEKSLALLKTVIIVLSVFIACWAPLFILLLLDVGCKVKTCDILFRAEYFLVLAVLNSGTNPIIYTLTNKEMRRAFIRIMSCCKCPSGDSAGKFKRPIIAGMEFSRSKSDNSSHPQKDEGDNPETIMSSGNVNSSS

Target: human Edg-1(S1P1) (Homo sapiens, UniProt P21453)
Experiment: Cell system binding test: inhibition of [3H]-S1P binding to Edg-1(S1P1) gene transferred HEK-293 cells
Settings: read-out: Kd of binding to human Edg-1(S1P1) gene transferred HEK-293 cell strain; radioligand binding, whole cells; tested as the radiolabelled form
Procedure: Using a human Edg-1(S1P1) gene transferred HEK-293 cell strain (showing a binding of Kd=6.4±2.1 nM, Bmax=160±94 fmol/10^5 cells to [^3H]-S1P), which had been obtained by a method complying with the method described in the literature (Science. 1998, 279:1552), the Edg-1(S1P1) binding inhibiting effect of the compound of the present invention was investigated in accordance with the method described in the literature. Cells (1×10^5 cells/well) obtained as described above were seeded in poly-L-lysine-coated 96-well plates (Corning Incorporated), and then incubated in a 5% carbon dioxide gas incubator for 12 hours at 37° C. with the use of an MEM medium (Invitrogen Corporation) containing 100 U/mL of penicillin, 100 μg/mL of streptomycin, a 1% MEM nonessential amino acid solution, and 10% FCS. […]
The same procedure was performed in the absence of the test compound, and the amount (B) of binding of [^3H]-S1P was calculated. Moreover, the same procedure was performed in the absence of the test compound with the use of HEK-293 cells, to which the Edg-1(S1P1) gene had not been transferred, and the background amount (C) of binding of [^3H]-S1P was calculated. […]

`CCCCCCCCCCCCC/C=C/[C@@H](O)[C@@H](N)COP(=O)(O)O` was tested, and the Kd was 6.4 nM.
